In PubChem BioAssay AID1012 (Sanford-Burnham Center for Chemical Genomics, 2008) one finds inhibition data, which are given here for nine compounds.

Sequences of proteins named here, by UniProt entry; tags and fusion partners are left off.
UniProt P05186, whole entry: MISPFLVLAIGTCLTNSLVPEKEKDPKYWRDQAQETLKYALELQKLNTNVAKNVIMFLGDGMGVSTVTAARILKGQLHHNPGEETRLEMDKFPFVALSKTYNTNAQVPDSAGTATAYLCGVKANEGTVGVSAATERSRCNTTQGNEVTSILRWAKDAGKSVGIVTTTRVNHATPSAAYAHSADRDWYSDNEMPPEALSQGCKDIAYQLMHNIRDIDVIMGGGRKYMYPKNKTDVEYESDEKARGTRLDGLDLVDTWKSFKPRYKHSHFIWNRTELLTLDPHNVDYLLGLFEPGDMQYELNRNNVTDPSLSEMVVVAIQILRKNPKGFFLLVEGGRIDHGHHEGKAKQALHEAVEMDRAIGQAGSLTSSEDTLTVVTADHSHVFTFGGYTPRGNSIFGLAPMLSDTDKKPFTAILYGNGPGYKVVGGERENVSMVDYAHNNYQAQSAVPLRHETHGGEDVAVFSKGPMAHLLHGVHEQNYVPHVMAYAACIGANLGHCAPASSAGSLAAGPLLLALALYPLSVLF

Only a part is listed here, and it is no random draw. Some of these compounds have results that are not shown, active ones among them. Active and inactive are the calls of the source.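 The calls were made as follows: active = tissue-nonspecific alkaline phosphatase inhibition above about 50% at 20 µM in the single-dose screen (limit read from the data); inactive = the rest.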

For the experiment, the target named is Alkaline phosphatase, tissue-nonspecific isozyme (Homo sapiens) (UniProt P05186). Briefly: blockers of alkaline phosphatase TNAP activity – biochemical, luminescent, no phosphate acceptor, uHTS, primary screen (AID 1012).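 Also: 0% = DMSO negative control and 100% = EDTA positive control.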 The following applies: purified TNAP, CDP-star luminescence, 30 min; at 20 µM; active compounds read high.
For `CN(C)C1CCCC1OC(=O)C(O)(c1ccccc1)c1ccccc1` (centres undefined), the inhibition is inactive: -12.9%. `Cc1ccccc1C(=O)NCC1(N2CCCCC2)CCCCC1`: the inhibition is inactive: -8.3%. As to `CCN1CCCC(OC(=O)C2(O)c3ccccc3C=Cc3ccccc32)C1` (centres undefined), the inhibition was inactive: -3.8%. As for `C=CCN1CCN(CCOC(=O)C(O)(c2ccccc2)c2ccccc2)CC1`, the inhibition is inactive: -4.8%.

On to `O=C(NCC1(N2CCCCC2)CCCCC1)c1cc([N+](=O)[O-])ccc1Cl`, for which the inhibition was inactive: -13%. Consider `CC(C)N1C(=O)CC2(CCN(CCOC(=O)C(O)(c3ccccc3)c3ccccc3)CC2)C1=O`, for which the inhibition is inactive: -3%. Next, `O=C(OC1CN2CCC1CC2)C(CO)(c1ccccc1)c1ccccc1` (centres undefined): inactive: -9%; `CN(C)c1cccc(C(=O)NCC2(N(C)C)CCCCC2)c1`: inactive: -8.8%. The same measure for `COc1cccc(C(=O)NCC2(N3CCCCC3)CCCCC2)c1`: inactive: -18.3%.
